# Data: patent publication US8883782B2, “Spiro-tetracyclic ring compounds as beta-secretase modulators and methods of use” (Amgen Inc., priority 2010, dated 2014)
# Chains of the proteins cited; added tags and fusions are not shown. Residues count along the entry.
# UniProt P56817, 46-501 limits assumed: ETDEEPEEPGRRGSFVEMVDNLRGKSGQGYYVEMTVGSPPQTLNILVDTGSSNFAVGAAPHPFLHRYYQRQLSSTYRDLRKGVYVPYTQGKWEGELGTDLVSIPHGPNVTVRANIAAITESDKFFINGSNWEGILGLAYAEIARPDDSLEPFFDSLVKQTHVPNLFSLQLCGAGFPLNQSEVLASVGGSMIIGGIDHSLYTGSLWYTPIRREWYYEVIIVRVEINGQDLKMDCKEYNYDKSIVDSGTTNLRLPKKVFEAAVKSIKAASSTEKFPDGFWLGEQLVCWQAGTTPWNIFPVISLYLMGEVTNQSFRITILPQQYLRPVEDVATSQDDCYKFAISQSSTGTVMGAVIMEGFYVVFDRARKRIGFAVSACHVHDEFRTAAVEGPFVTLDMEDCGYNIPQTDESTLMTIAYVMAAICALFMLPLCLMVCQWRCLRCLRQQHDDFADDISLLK
# How the values were obtained:
# [1] = molecular target: Beta Secretase enzyme (BACE) (Homo sapiens, UniProt P56817); test: In vitro enzymatic BACE FRET (fluorescence resonance energy transfer) assay; format: biochemical; details: read-out: BACE 1 FRET assay; average IC50, enzyme assay
# [2] = tested on: Aβ40 in conditioned medium of cells stably expressing Amyloid Precursor Protein (APP); test: In vitro BACE cell-based assay (Aβ40 in conditioned medium, sandwich ELISA); details: read-out: HEK cell assay; average IC50, HEK cell assay
smiles,measurement,setting,value
NC1=N[C@@]2(CO1)c1cc(-c3cncc(F)c3)ccc1Oc1c2cc(C2CC2)nc1F,IC50,[1],316 nM
same,IC50,[2],1150 nM
